Test results taken from IntAct's records for PubMed 29420262.

B1: Innate immunity activator protein (Homo sapiens), Q3KP66 (parent)
chain: MLQMPKLNEIPPGRAGRREARGEGRWPGQTGPEAARLEWRAQGQAGGARAPWDSWGSSRLPTQPGPGWSRCPPSLLCALSFQKSTMESKDEVSDTDSGIILQSGPDSPVSPMKELTHAVHKQQRALEARLEACLEELRRLCLREAELTGTLPAEYPLKPGEKAPKVRRRIGAAYKLDDWALHREDPLSSLERQLALQLQITEAARRLCLEENLSRQARRQRKHSMLQEEKKLQELQRCLVERRRNSEPPPAAALPLGRELSASDDSSLSDGLLLEEEESQVPKPPPESPAPPSRPLPPQTLEGLQPTGPEAGSPERAPVQNSPWKETSLDHPYEKPRKSSEPWSESSSPATTPQDGPSASSLWLLEPASYHVVPIRGVPGQWQGRTSAPATPEIQGRRGQSQSLRVDSFRAGPEGRGRSAFPRRRPTHYTVTVPDSCFPATKPPLPHAACHSCSEDSGSDVSSISHPTSPGSSSPDISFLQPLSPPKTHRHRGAWVPAGSRELVAHHPKLLLPPGYFPAGRYVVVAESPLPPGEWELRRAAPGPAYEEEGTPLRYQRLVPSRSRIVRTPSLKDSPAGRGLSKAAVSEELKWWHERARLRSTRPHSLDRQGAFRVRSLPLGREGFGRALGPRAQVPTVCVLRRSPDGAPVQVFVPEKGEIISQV

Variants of: B1
Conditions: with cyh1_human CYTH1, Q15438
With Y333F the “effect of a mutation on the interaction” value was “increasing interaction”.
